Paper PMC8317212 (Journal of medicinal chemistry, 2016)

By UniProt entry, the sequences of proteins in these tests, tags left out.
UniProt P28223, whole entry: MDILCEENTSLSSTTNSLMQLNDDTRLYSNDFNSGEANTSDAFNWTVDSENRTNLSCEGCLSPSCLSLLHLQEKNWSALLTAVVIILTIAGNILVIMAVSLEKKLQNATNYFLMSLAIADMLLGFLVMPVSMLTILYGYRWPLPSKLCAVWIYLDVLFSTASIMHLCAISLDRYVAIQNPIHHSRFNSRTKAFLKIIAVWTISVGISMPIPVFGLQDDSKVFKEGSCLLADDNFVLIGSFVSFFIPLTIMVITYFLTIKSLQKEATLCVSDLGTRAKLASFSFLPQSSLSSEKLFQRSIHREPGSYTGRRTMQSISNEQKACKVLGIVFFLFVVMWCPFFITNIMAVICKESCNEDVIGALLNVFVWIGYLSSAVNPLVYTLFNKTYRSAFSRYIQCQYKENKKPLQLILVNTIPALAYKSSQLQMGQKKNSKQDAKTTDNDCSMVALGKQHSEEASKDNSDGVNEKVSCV

Legend:
[1] = molecular target: human 5-HT2A (Homo sapiens, UniProt P28223); test: FLIPR calcium flux assay, 5-HT2A; type: cell-based
[2] = system: mice; details: mouse, in vivo
[3] = system: C57BL/6 mice; details: mouse, in vivo
[4] = system: WT and NR1-KD mice; details: mouse, in vivo
[5] = system: C57BL/6J mice; details: mouse, in vivo

C=CCOc1cc(F)c(F)cc1C1CC1CN.Cl (single isomer, unassigned; (+)) [(+)-22a, (+)-[2-[2-(Allyloxy)-4,5-difluorophenyl]cyclopropyl]methanamine Hydrochloride]
Emax 5-HT2A [1]: 491 (21%) | baseline locomotion in open field (0–15 min) [2]: small, albeit significant (p < 0.040) reduction in locomotion | PPI, compound alone [3]: similarly high levels of PPI with the Veh + Veh group | startle (pulse-only) response to 120 dB stimulus [3]: decreased startle activities | novel object preference (NORM), NR1-KD mice [4]: significantly enhanced this preference | novel object preference (NORM), WT mice [4]: attenuation in NORM | total object exploration time [4]: object exploration was similar between genotypes | catalepsy one hour after injection [5]: catalepsy was very low
